The list shows a part of the results, in another mix than the full data. Some tests of the compounds listed are not included; inactive here does not mean inactive elsewhere. Active and inactive are the calls of the source. Cut-off read from the data, not from the text of the source: active = inhibition above about 50%; inactive = the rest.
These compounds were tested against Glycoprotein 42 (Epstein-Barr virus (strain AG876)) (UniProt Q1HVG2) (assay: Epstein-Barr virus gp42 inhibitors, primary screen, biochemical, uHTS, fluorescence polarization (AID 1085)). Details: Fluorescence polarization binding assay, mP read-out; hits give high values; tested at 21.74 µM.

By UniProt entry, the sequences of proteins in these tests, tags left out.
UniProt Q1HVG2, whole entry: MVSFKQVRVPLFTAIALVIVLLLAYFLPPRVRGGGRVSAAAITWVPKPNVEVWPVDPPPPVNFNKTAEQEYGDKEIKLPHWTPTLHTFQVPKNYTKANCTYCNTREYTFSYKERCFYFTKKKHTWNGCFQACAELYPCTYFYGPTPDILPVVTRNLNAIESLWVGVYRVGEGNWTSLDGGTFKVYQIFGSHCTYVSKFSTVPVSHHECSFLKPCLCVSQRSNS

| SMILES | inhibition |
| --- | --- |
| O=C(OC1CN2CCC1CC2)C(CO)(c1ccccc1)c1ccccc1 (stereo unspecified) | inactive: -8.62% |
| CN(C)c1cccc(C(=O)NCC2(N(C)C)CCCCC2)c1 | inactive: -9.65% |
| COc1ccc(Br)c(C(=O)NCC2(N3CCCCC3)CCCCC2)c1 | inactive: -17.6% |
| COc1cccc(C(=O)NCC2(N3CCCCC3)CCCCC2)c1 | inactive: -13.1% |
| CN(C)C1CCCC1OC(=O)C(O)(c1ccccc1)c1ccccc1 (stereo unspecified) | inactive: -12.1% |
| Cc1ccccc1C(=O)NCC1(N2CCCCC2)CCCCC1 | inactive: -8.48% |
| CCN1CCCC(OC(=O)C2(O)c3ccccc3C=Cc3ccccc32)C1 (stereo unspecified) | inactive: -13.5% |
| C=CCN1CCN(CCOC(=O)C(O)(c2ccccc2)c2ccccc2)CC1 | inactive: -7.05% |
| O=C(NCC1(N2CCCCC2)CCCCC1)c1cc([N+](=O)[O-])ccc1Cl | inactive: -13.8% |
| CCN(CC)CC(C)C(C)OC(=O)C(O)(c1ccccc1)c1ccccc1 (stereo unspecified) | inactive: -20.9% |
| CC(C)N1C(=O)CC2(CCN(CCOC(=O)C(O)(c3ccccc3)c3ccccc3)CC2)C1=O | inactive: -3.6% |
